Measurements: patent publication US20020103111A1, “Inhibitors of MAdCAM-1-mediated interactions and methods of use therefor” (Millennium Pharmaceuticals, Inc., priority 1996, published 2002)

Target: human α4β7 integrin (human) (UniProt P13612)
Assay: inhibition of HUT 78 cell adhesion to murine MAdCAM-1/mCk

IC50 | Substance
106 µM | Ac-Leu-Asp-HyP-Ser-Leu (peptide)
19000 µM | Ac-Lle-Asp-Thr-Ser-Leu (peptide)

Substance | IC50
Flc-Leu-Asp-Thr-Ser-Leu (peptide) | 17 µM
